In patent US8906919B2, “Treatment of non-neuronal and non-myocardial cell, tissue and organ damage and associated pain with persistent sodium current blockers” (Ozteo Pty Ltd, priority 2009, dated 2014):
Where two headings read alike, the source gives them in different places.

Experiments:
[1] = system: tibialis anterior skeletal muscles; details: pig, 2 mg/kg iv before ischaemia
Description: A further ten minutes was allowed for drug circulation prior to the induction of ischaemia. […] Samples of reperfused tissue were excised 45 minutes following reperfusion. Samples of non-reperfused ischaemic tissue were excised 3 hours post occlusion.

[2] = system: kidney tissue; details: rat, iv before ischaemia (riluzole 5 mg/kg, lidocaine 1 mg/kg, lamotrigine 20 mg/kg)
Description: (§1) Additional studies were performed on kidney tissue in 48 isoflurane-anaesthetised, male Wistar albino rats (300-350 g). […] A further ten minutes was allowed for drug circulation prior to the induction of ischaemia. Tissue ischaemia was produced in all animals by occluding the renal artery to the left kidney. Immediately prior to occlusion, a 1,000 unit bolus of IV heparin was injected to prevent blood clotting and to permit reperfusion. Occlusion was maintained for 3 hours following which, in 6 animals in each group, the occlusion was released and reperfusion of the kidney was allowed. Samples of reperfused tissue were excised 45 minutes following reperfusion. Samples of non-reperfused ischaemic tissue were excised 3 hours post occlusion. Samples of ischaemic tissue and of reperfused tissue were taken from different animals. Samples of non-ischaemic, non-treated tissue were excised from the right kidney of the non-treated group.
In addition, persistent sodium current blockade was assessed for its affect on kidney tissue DNA fragmentation during ischaemia and reperfusion. […] All panels were illuminated by light with wavelength around 520 nm to show DNA fragmentation.

[3] = system: kidney tissue; details: rat
Description: as §1
Persistent sodium current blockade was evaluated for its effect on kidney tissue glutathione levels during ischaemia and reperfusion.

For `Nc1nc2ccc(OC(F)(F)F)cc2s1` [riluzole, 2-amino-6-trifluoromethoxybenzothiazole], the “tissue fibre waviness, H&E staining” value ([1]; 3 h femoral artery occlusion, no reperfusion (group 3)) was “no tissue fibre waviness”, the “marbling of tissue (oedema), H&E staining” value ([1]; 3 h femoral artery occlusion, no reperfusion (group 3, FIG. 4)) was “slight marbling” and the “level of glutathione compared with non-treated and non-ischaemic tissue” value ([1]; 3 h ischaemia and 45 min reperfusion (FIG. 6, 615 vs 611)) was “comparable”. The “level of glutathione compared with non-treated ischaemic and reperfused tissue” value ([1]; 3 h ischaemia and 45 min reperfusion (FIG. 6, 615 vs 613)) was “significantly greater”, the “level of glutathione compared with non-treated and non-ischaemic tissue” value ([1]; 3 h ischaemia, no reperfusion (FIG. 6, 614 vs 611)) was “comparable” and the “level of glutathione compared with non-treated ischaemic tissue” value ([1]; 3 h ischaemia, no reperfusion (FIG. 6, 614 vs 612)) was “significantly greater”. For the same molecule, the “tissue fibre waviness, H&E staining” value ([1]; 3 h occlusion and 45 min reperfusion (group 4)) was “no tissue fibre waviness”, the “marbling of tissue (oedema), H&E staining” value ([1]; 3 h occlusion and 45 min reperfusion (group 4, FIG. 5), compared with non-treated group 2) was “very little marbling” and the “damaged nuclei (DNA fragmentation)” value ([1]; ischaemia and reperfusion (FIG. 7, panel 706)) was “does not show any damaged nuclei”. For the same molecule, the “damaged nuclei (DNA fragmentation)” value ([1]; ischaemia, not reperfused (FIG. 7, panel 704)) was “does not show any damaged nuclei”, the “damaged nuclei (DNA fragmentation) in renal tubules compared with non-treated tissue” value ([2]; 3 hours of ischaemia and 45 minutes of reperfusion (FIG. 10)) was “relatively few damaged nuclei” and the “damaged nuclei (DNA fragmentation) in renal tubules compared with non-treated tissue” value ([2]; 3 hours of ischaemia and no reperfusion (FIG. 10)) was “considerably fewer damaged nuclei”. The “kidney glutathione levels compared with non-treated, non-ischaemic and non-reperfused group” value ([3]; iv before ischaemia (riluzole 5 mg/kg, lidocaine 1 mg/kg), 3 h ischaemia and 45 min reperfusion (FIG. 9, vs 901)) was “not significantly different”, the “kidney glutathione levels compared with non-treated reperfused group” value ([3]; iv before ischaemia (riluzole 5 mg/kg, lidocaine 1 mg/kg, lamotrigine 20 mg/kg), 3 h ischaemia and 45 min reperfusion (FIG. 9)) was “significantly higher” and the “kidney glutathione levels after ischaemia” value ([3]; iv before ischaemia (riluzole 5 mg/kg, lidocaine 1 mg/kg, lamotrigine 20 mg/kg), 3 h renal artery occlusion, no reperfusion (FIG. 8)) was “not significantly reduced”.
